# According to ChEMBL document CHEMBL1126106, “O3-(2-carbomethoxyallyl) ethers of opioid ligands derived from oxymorphone, naltrexone, etorphine, diprenorphine, norbinaltorphimine, and naltrindole. Unexpected O3-dealkylation in the opioid radioligand displacement assay” (1992):
# Amino acid sequences for entries named in this document (tags omitted). A change or cut given only in a name is not applied to a line headed by its entry.
# UniProt P97266, whole entry, looked up: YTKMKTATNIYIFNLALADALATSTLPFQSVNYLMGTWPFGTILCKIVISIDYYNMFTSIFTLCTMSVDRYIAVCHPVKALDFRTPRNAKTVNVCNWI
# UniProt P41144: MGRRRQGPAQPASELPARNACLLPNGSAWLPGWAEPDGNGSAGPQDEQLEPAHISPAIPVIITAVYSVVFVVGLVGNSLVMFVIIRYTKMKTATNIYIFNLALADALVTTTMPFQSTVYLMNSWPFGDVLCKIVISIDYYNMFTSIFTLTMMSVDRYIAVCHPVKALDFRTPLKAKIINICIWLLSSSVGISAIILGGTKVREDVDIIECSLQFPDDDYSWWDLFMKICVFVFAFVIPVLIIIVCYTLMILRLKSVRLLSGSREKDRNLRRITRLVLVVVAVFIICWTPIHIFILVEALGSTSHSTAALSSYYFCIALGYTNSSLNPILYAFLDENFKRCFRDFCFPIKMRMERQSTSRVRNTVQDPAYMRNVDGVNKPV
# UniProt P41145: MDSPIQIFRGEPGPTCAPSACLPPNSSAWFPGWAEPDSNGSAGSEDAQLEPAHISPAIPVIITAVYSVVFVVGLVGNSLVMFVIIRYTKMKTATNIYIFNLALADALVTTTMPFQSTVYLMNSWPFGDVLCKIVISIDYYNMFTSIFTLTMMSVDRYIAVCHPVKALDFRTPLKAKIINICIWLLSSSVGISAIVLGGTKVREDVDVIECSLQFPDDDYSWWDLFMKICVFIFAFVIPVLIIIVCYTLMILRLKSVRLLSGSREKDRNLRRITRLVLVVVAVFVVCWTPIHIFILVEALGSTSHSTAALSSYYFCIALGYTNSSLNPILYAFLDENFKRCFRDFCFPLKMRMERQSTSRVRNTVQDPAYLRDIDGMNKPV
# UniProt P41143, whole entry, looked up: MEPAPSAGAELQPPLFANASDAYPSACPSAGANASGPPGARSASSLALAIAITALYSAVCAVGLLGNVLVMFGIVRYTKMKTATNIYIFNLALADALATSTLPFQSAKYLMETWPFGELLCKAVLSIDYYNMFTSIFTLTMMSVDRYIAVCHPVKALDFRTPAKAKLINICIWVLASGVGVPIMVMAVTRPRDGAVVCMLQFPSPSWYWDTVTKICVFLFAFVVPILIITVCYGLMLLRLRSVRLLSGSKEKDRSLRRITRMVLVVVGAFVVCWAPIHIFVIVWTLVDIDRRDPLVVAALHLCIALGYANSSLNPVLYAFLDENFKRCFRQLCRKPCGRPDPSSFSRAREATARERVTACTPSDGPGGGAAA
# UniProt P35372, whole entry, looked up: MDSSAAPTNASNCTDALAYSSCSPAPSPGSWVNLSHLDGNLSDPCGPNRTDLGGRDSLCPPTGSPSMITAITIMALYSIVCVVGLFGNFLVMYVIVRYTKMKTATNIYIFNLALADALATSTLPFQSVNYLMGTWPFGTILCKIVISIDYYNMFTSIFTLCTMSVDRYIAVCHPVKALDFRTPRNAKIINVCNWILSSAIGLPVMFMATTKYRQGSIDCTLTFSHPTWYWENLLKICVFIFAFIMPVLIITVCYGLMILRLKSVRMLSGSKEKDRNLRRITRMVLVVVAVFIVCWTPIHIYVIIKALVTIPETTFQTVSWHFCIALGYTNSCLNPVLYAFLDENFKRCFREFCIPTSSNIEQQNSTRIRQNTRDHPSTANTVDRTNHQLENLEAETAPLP
# Legend:
# Mu-type opioid receptor = Mu-type opioid receptor (Cavia porcellus, UniProt P97266); assay: Inhibition of opioid receptor mu by displacing 1 nM [3H]DAGO in guinea pig brain membrane
# [1] = molecular target: Kappa-type opioid receptor (Cavia porcellus, UniProt P41144); assay: Inhibition of opioid receptor kappa by displacing 0.5 nM [3H]bremazocine in guinea pig brain membrane
# [2] = molecular target: Opioid receptors; mu/kappa/delta (Homo sapiens, UniProt P41145+P41143+P35372); assay: Inhibition of total opioid receptor by displacing 0.5 nM [3H]bremazocine in guinea pig brain membrane
Structure (SMILES),IC50 (Mu-type opioid receptor) [nM],IC50 [1] [nM],IC50 [2] [nM]
C=C(COc1ccc2c3c1O[C@H]1c4[nH]c5c(c4C[C@@]4(O)[C@@H](C2)N(CC2CC2)CC[C@]314)C[C@@]1(O)[C@H]2Cc3ccc(OCC(=C)C(=O)OC)c4c3[C@@]1(CCN2CC1CC1)[C@H]5O4)C(=O)OC [listing 1 of 2 here],47,8.3,–
COC(=O)C(C)COc1ccc2c3c1O[C@H]1C(=O)CC[C@@]4(O)[C@@H](C2)N(CC2CC2)CC[C@]314 (stereo partly drawn) [listing 1 of 2 here],–,–,> 3000
COC(=O)C(C)COc1ccc2c3c1O[C@H]1C(=O)CC[C@@]4(O)[C@@H](C2)N(CC2CC2)CC[C@]314 (stereo partly drawn) [listing 2 of 2 here],840,> 3000,–
CO[C@]12CC[C@@]3(C[C@@H]1C(C)(C)O)[C@H]1Cc4ccc(O)c5c4[C@@]3(CCN1CC1CC1)[C@H]2O5,0.71,1.8,–
C=C(COc1ccc2c3c1O[C@H]1c4[nH]c5ccccc5c4C[C@@]4(O)[C@@H](C2)N(CC2CC2)CC[C@]314)C(=O)OC [listing 1 of 2 here],–,–,80
C=C(COc1ccc2c3c1O[C@H]1C(=O)CC[C@@]4(O)[C@@H](C2)N(C)CC[C@]314)C(=O)OC,2.4,880,110
C=C(COc1ccc2c3c1O[C@H]1c4[nH]c5ccccc5c4C[C@@]4(O)[C@@H](C2)N(CC2CC2)CC[C@]314)C(=O)OC [listing 2 of 2 here],96,175,–
C=C(COc1ccc2c3c1O[C@H]1C(=O)CC[C@@]4(O)[C@@H](C2)N(CC2CC2)CC[C@]314)C(=O)OC,1.5,19,10.3
C=C(COc1ccc2c3c1O[C@H]1[C@H](OCC(=C)C(=O)OC)CC[C@@]4(O)[C@@H](C2)N(CC2CC2)CC[C@]314)C(=O)OC,2.8,42,14
C=C(COc1ccc2c3c1O[C@H]1[C@H](O)CC[C@@]4(O)[C@@H](C2)N(CC2CC2)CC[C@]314)C(=O)OC,2.8,47,27
C=C(COc1ccc2c3c1O[C@H]1c4[nH]c5c(c4C[C@@]4(O)[C@@H](C2)N(CC2CC2)CC[C@]314)C[C@@]1(O)[C@H]2Cc3ccc(OCC(=C)C(=O)OC)c4c3[C@@]1(CCN2CC1CC1)[C@H]5O4)C(=O)OC [listing 2 of 2 here],–,–,22
